What was measured:
[1] = system: P. aeruginosa strain CFS-1292; test: Checkerboard assay (FICI) with antibiotics, P. aeruginosa; settings: P. aeruginosa CFS-1292, CAA + […] human serum
[2] = Solubility test (GenScript); type: physicochemical; settings: water
From the text: All Chp peptides were synthesized by GenScript, NJ, USA with capping [N-terminal acetylation (Ac) and C-terminal amidation (NH2)] on a fee-for-service basis. GenScript assessed the purity of each peptide by high performance liquid chromatography (HPLC) and mass spectrometry (MS). GenScript also performed a solubility test for all peptides and determined the net peptide content (NPC %) using a Vario MICRO Organic Elemental Analyzer. […] All additional peptides were commercial products purchased from either GenScript or Anaspec.

[3] = Stability assessment: fold change in MIC after incubation in 100% human serum; type: in vitro ADME; settings: for stability (fold change in MIC) in 100% human serum: 37° C., 1 hour, and 2 hours; for Fold change in MIC: incubation in 100% human serum at 37° C.
[4] = system: human red blood cells; test: Hemolytic activity, minimal hemolytic concentration (MHC); type: cell-based; settings: human red blood cells
[5] = Stability assessment in 100% CAA; type: in vitro ADME; settings: incubation in 100% CAA at 37° C.
[6] = Stability assessment in rabbit serum; type: in vitro ADME; settings: incubation in rabbit serum at 37° C.

Substance	Antibiotic MIC in checkerboard ([1]; combined with Chp2-M1)	Antibiotic MIC in checkerboard ([1]; combined with Chp2)	Antibiotic MIC in checkerboard ([1]; combined with Chp6-M1)	solubility [2]	stability (fold change in MIC) in 100% human serum ([3]; 10 minutes)	Fold change in MIC ([3]; 10 minutes)	Fold change in MIC ([3]; 1 hour)	Fold change in MIC ([3]; 2 hours)	Minimal hemolytic concentration (MHC) [4]	Fold change in MIC (100% CAA) ([5]; 10 min.)	Fold change in MIC (100% CAA) ([5]; 1 hour)	Fold change in MIC (100% CAA) ([5]; 2 hours)	Fold Change in MIC (rabbit serum) ([6]; 10 min.)	Fold Change in MIC (rabbit serum) ([6]; 1 hour)	Fold Change in MIC (rabbit serum) ([6]; 2 hours)
Gentamicin	0.03125 mg/L	0.5 mg/L	0.03125 mg/L												
MAEQYELSQEQSEQLFSETALQMHEQNELQEIMQGGIEF [Chp5]				suspended in DMSO	adequately stable	1	2	2	>128 µg/mL						
MKKRTKALLPYAVFIILSFQLTLLTALFMYYHYTF [Lvp2]				suspended in DMSO	adequately stable	1	1	0.25	8 µg/mL						
MRRKVKNTKRHQWRLTHSARSIKRANIMPSNPRGGRRF					adequately stable	1	1	1	>128 µg/mL	1	1	0.5	1	1	1
MRRPRKMNYKKSKRMFSRTAARTHRKNSLRGSRPMRGGIRL [Gkh1]					adequately stable	1	0.5	1	>128 µg/mL	1	0.5	0.5	1	0.5	0.5
MRRRRLSRRTSRRFFRKGLKVRRRNLRARPMRGGFRI [Unp2]					adequately stable	1	2	1	>128 µg/mL	1	1	1	1	2	2
MRRYNVNKGKSAKKFRKQVSKTKVANLRSNPMRGGWRL [AGT915]					adequately stable	1	1	0.5	>128 µg/mL	1	2	0.5	1	1	1
MRRYNVNKGKSAKKFRKQVSKTKVANLRSNPMRGGWRL [Unp6]					adequately stable	1	1	1	>128 µg/mL	1	1	0.5	1	1	1
MSKKASRKSFTKGAVKVHKKNVPTRVPMRGGIRL [Gkh2]					adequately stable	1	0.5	2	>128 µg/mL	1	0.5	0.5	1	1	1
MSKKRSRMSRRRSKKLFSKTALRTKSVNTRPPMRGGFRF [Chp8]					adequately stable	1	1	1	>128 µg/mL	1	0.5	0.5	1	1	1
MSLRRHKLSRKASKRIFRKGASRTKTLNTRATPMRGGFRI [Chp9]					adequately stable	1	0.5	0.5	>128 µg/mL	1	0.5	0.5	1	1	1
MSSTLCRWAVKALRCTRVYKEFIWKPLVALSYVTLYLLSSVFLSQLSYPIGSWAV [Lvp1]				suspended in DMSO						1	0.5	0.5	1	1	1
MTKRDIEYRKALGLNPSEPLPKIVGAVTRHGATLKRPRVTALAR [SBR77]					adequately stable	1	4	1	>128 µg/mL	1	1	1	1	1	1
MVRRRRLRRRISRRIFRRTVARVGRRRRSFRGGIRF [Chp1]					adequately stable	1	1	1	>128 µg/mL	1	1	1	1	2	2

From US20220401514A1, “ANTIMICROBIAL, BACTERIOPHAGE-DERIVED POLYPEPTIDES AND THEIR USE AGAINST GRAM-NEGATIVE AND ACID-FAST BACTERIA” (CONTRAFECT CORPORATION, priority 2019, published 2022)
